Measurements: ChEMBL document CHEMBL3994656, “Furanoterpenes, new types of protein tyrosine phosphatase 1B inhibitors, from two Indonesian marine sponges, Ircinia and Spongia spp” (Bioorg Med Chem Lett, 2017)

Assays:
Homo sapiens [1] = organism: Homo sapiens; assay: Selectivity ratio of IC50 for human CD45 cytoplasmic domain (584 to 1281 residues) expressed in yeast to IC50 for recombinant human PTP1B (1 to 322 residues) expressed in Escherichia coli
Homo sapiens [2] = organism: Homo sapiens; assay: Selectivity ratio of IC50 for full length recombinant N-terminal GST-tagged human TCPTP expressed in Escherichia coli to IC50 for recombinant human PTP1B (1 to 322 residues) expressed in Escherichia coli

Ratio IC50 (Homo sapiens [1]): 4
Ratio IC50 (Homo sapiens [2]): 2
SMILES: CC1=C(O)/C(=C/[C@@H](C)CCC/C(C)=C/CC/C(C)=C/CCc2ccoc2)OC1=O
